Data as given in patent US20250352609A1, “Methods For Treating Alzheimer's Disease or Dementia Using A Calcilytic And A Calcimimetic” (The United States Government As Represented By The …, priority 2024, published 2025).

How the values were obtained:
24 MOA male C57/B6 mice = assay: Y-maze test in aged mice, aducanumab and/or Etelcalcetide; type: in vivo
serum PTH (sPTH) = assay: Serum PTH in aging-associated HPT mice; type: in vivo; details: aged male C57/B6 mice; aducanumab 40 mg/kg/week by twice weekly injections for 5 weeks; Etelcalcetide 0.3 mg/kg once daily

Substance: aducanumab
- neuroprotection, neurobehavior assessed by Y-maze (24 MOA male C57/B6 mice): restore cognitive functions
- reduction of sPTH (serum PTH (sPTH)): 25%
